Laboratory results from US7560262B2, “Polynucleotide sequences encoding alkaline α-galactosidases and methods of using same” (The State of Israel - Ministry of Agriculture & Rural …, priority 2002, dated 2009).

Tested on: 6-O-α-D-galactopyranosyl-D-glucose
Assay: purified protein, by the assay type
Conditions: other: recombinant Aga-I, pH 8, Lineweaver-Burk plots

## recombinant Aga-I (alkaline-α-galactosidase I) (Cucumis melo)
  Km: 6 mM
